# Hits are enriched below; roughly 3.7% of the tested compounds scored in any of these assays.
# A549 tox-1 = A549 cytotoxicity, counter-screen for Nrf2 inhibitors; AID 504648; A549 ARE-Fluc cells, CellTiter-Fluor viability, 18-24 h; Potency, µM (top dose mostly 46 µM), for inactives: at the highest dose activity change, negative = cytotoxicity, actives largely listed as inhibitors; 390,000 compounds, 0.16% hits; note: potency is the fitted concentration of half-maximal effect; % is set by controls: 0 for no effect and ±100 for the full control effect
#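 Cytotoxicity counterscreen: CellTiter-Fluor fluorescence was measured in A549 ARE_Fluc cells after 18-24 h of compound exposure in a concentration series. The subsequent BugLite luminescent read reports ARE-luciferase activity.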
# miR-21 reporter = raises the signal of a miR-21 reporter | AID 2288 | 340,000 tested, under 10 active | Potency, µM (series often up to 38.3 µM), without a hit: at the highest dose reporter change, positive = more light | HeLa miR-21 FLuc reporter, luciferase, 48 h; active = well fitted rising curve with a large enough effect; inconclusive = small, poorly fitted or top-dose-only effect; inactive = no such curve, though single readings can be large or run the other way;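 further: % of control where 0% means no effect; miR-21 action dims this reporter so a rising signal means less miR-21 action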
#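 HeLa cells stably expressing CMV-driven firefly luciferase with a downstream miR-21 binding sequence, endogenously expressing miR-21, were treated with titrations (up to about 40uM final) for 48 hours at 37 degree Celsius. Luciferase luminescence was read after lysis.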
# Nrf2 block = inhibitors of Nrf2 signaling; 360,000 compounds, 2.1% hits; A549 ARE-Fluc reporter, luciferase luminescence, 18-24 h; Potency, µM (series often up to 46 µM), without a hit: at the highest dose activity change, negative = inhibition, hits mostly inhibitors; AID 504444; note: potency is the fitted concentration of half-maximal effect; % is set by controls: 0 for no effect and ±100 for the full control effect; nearly all actives have a fitted effect of over 60% in size
#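 Concentration-response testing used A549 ARE_Fluc cells at 5000 cells/well. Following an 18-24 h compound incubation, viability was read by fluorescence (Ex 405/Em 525) and luciferase output by luminescence.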
# Nrf2 ARE act = activates Nrf2 signaling; 410,000 compounds, 0.31% hits; Potency, µM (series often up to 46.1 µM), inactives show at the top dose activation, actives largely listed as activators; AREc32 ARE-luciferase reporter (MCF7-derived line), luminescence, 24 h; note: potency is the fitted concentration of half-maximal effect; % of control where 0% means no effect; nearly all actives have a fitted effect of over 65% in size
#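 For detection, Steady-Glo was added and plates sat 30 min at RT; before that, AREc32_Fluc cells grown overnight in OPTI-MEM/5% FBS had been treated with 23 nL compound for 24 hr at 37 deg C.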
# ClpP mod = qHTS Assay for Activators of ClpP. 340,000 compounds, 1.9% hits. purified B. subtilis ClpP, FRET peptide cleavage, 20 min. Potency, µM (series often up to 57.5 µM), without a hit: at the top dose activity change, negative = active; active = well fitted falling curve with a large enough effect; inconclusive = small, poorly fitted or top-dose-only effect; inactive = no such curve, though single readings can be large or run the other way; note: potency is the fitted concentration of half-maximal effect; the source files actives as falling curves though it sought activators and does not explain the sign; nearly all actives have a fitted effect of over 65% in size
#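 FRET quenching reversal measured ClpP activation: 10 microg/mL B. subtilis ClpP at pH 8 with the FRET-FV decapeptide, read at 430 nm after 320 nm excitation. The 20-min minus 0-min signal was scaled between DMSO/no-enzyme wells and ADEP (5.8 microM final).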
# p53 reactivator = mutant p53 re-activation in reporter cells. AID 504706. 320,000 compounds, 0.063% hits. H1299 p53-A138V BP100-luciferase reporter, luminescence, 24 h. Potency, µM (titrated, usually from 92.2 µM), for the others: top-dose activity change, positive = activation, actives largely listed as activators; note: potency is the fitted concentration of half-maximal effect; % of control where 0% means no effect; nearly all actives have a fitted effect of over 45% in size
#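 p53-null H1299 cells stably carrying temperature-sensitive p53-A138V and a BP100-luciferase reporter were pinned with compounds (4-point, 1:5 series) and held 24 hrs at 37 deg C. Luminescence was read 10 min after detection reagent.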
# FLuc counter 3 = blocks purified firefly luciferase in Nrf2 counterscreen. Potency, µM (doses to about 57.5 µM), for the others: at the top dose activity change, negative = inhibition, most hits filed as inhibitors. purified firefly luciferase, luminescence inhibition. AID 720522. shares compounds with Nrf2 block. 1,400 compounds, 4% hits; note: potency is the fitted concentration of half-maximal effect; % is set by controls: 0 for no effect and ±100 for the full control effect; nearly all actives have a fitted effect of over 65% in size
# A549 tox-2 = toxic to A549 ARE-Fluc cells in Nrf2 counterscreen. Potency, µM (highest dose often 46.1 µM), inactives show at the highest dose activity change, negative = cytotoxicity, most hits filed as inhibitors. A549 ARE-Fluc cells, cytotoxicity counterscreen. shares compounds with Nrf2 block. 1,400 compounds, 2% hits;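 note: potency is the fitted concentration of half-maximal effect; cells exposed to compounds for 18 to 24 hours; % is set by controls: 0 for no effect and ±100 for the full control effect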
# ARE-Fluc inh = reduces Nrf2 ARE reporter signal in A549 cells | Potency, µM (series often up to 46.1 µM), for inactives: top-dose activity change, negative = inhibition, hits mostly inhibitors | 1,400 compounds, 74% hits | A549 ARE-firefly luciferase reporter, luminescence | shares compounds with Nrf2 block; note: potency is the fitted concentration of half-maximal effect; % is set by controls: 0 for no effect and ±100 for the full control effect; nearly all actives have a fitted effect of over 65% in size
# * = called active by the depositor; ? = inconclusive; . = no result shown; [ ] = another dose, or the depositor's remark. Unless noted, calls come from the whole dose curve; as a rule, active = well fitted curve in the direction sought with a large enough effect; inconclusive = small, poorly fitted or top-dose-only effect, or another doubt; inactive = no such curve, though single readings can be large; an effect the other way counts as inactive or inconclusive.
# Below each SMILES: Nrf2 ARE act | ARE-Fluc inh | A549 tox-2 | FLuc counter 3 | p53 reactivator | Nrf2 block | A549 tox-1 | ClpP mod | miR-21 reporter
> CN(C)S(=O)(=O)c1ccc(Nc2nc(C3CC3)nc3c2nnn3Cc2ccccc2Cl)cc1
    5.5% | 4.11µM* | -23.8% | 2.3% | -9.1% | 5.8µM* | -23.9% | 31.6µM* | -0.2%
> O=S(=O)(c1ccccc1Cl)N1CCCC1c1nc(-c2ccc(Cl)cc2)no1 (stereo not given)
    2.0% | 13µM* | 9.9% | -7.6% | 1.9% | 5.8µM* | -15.4% | -2.7% | 10.6%
> Nc1c(Br)cc(/C=C/c2ccnc3ccccc23)cc1Br
    . | . | . | . | . | . | . | -3.5% | .
> C(=C\c1ccnc2ccccc12)/c1cc2c3c(c1)CCCN3CCC2
    . | 7.31µM* | -16.1% | -24.8% | . | . | . | -0.4% | .
> COc1ccc(CNc2ncnc3c2[nH]c2cc(OC)c(OC)cc23)cc1
    5.7% | . | . | . | -2.1% | -16.3% | 0.6% | . | -0.7%
> COc1ccc(CNc2ncnc3c2[nH]c2ccccc23)cc1
    8.2% | 5.17µM* | -19.8% | ? | -8.5% | 4.61µM* | -19.2% | . | ?
> CCOC(=O)C1=C(CSc2nc3ccccc3s2)NC(=O)NC1c1ccc(OC)cc1 (stereo not given)
    0.2% | . | ? | -20.3% | -1.5% | 5.8µM* | ? | -3.7% | 25.1%
> COc1ccccc1-c1noc(CCCC(=O)NC2CCCC2)n1
    -0.2% | . | . | . | -0.7% | 12.9% | 3.2% | . | 1.0%
> O=C(CCCc1nc(-c2ccccc2Cl)no1)NC1CCCC1
    0.1% | 4.61µM* | -0.2% | ? | -24.1% | 1.16µM* | -4.9% | 0.6% | ?
> O=C(CCc1nc(-c2ccc(Cl)cc2)no1)NC1CCCC1
    -0.5% | . | . | . | 16.0% | ? | 0.7% | -0.7% | 0.7%
> O=C(CCCc1nc(-c2ccc(Cl)cc2)no1)NC1CCCCC1
    0.2% | . | -1.0% | 0.2% | -0.9% | 3.66µM* | -15.0% | -1.0% | 0.7%
> CCOC(=O)c1c(NC(=O)COc2cccc(C(F)(F)F)c2)sc2c1CCCCC2
    -0.5% | . | . | . | . | -0.9% | -0.6% | -1.7% | 3.5%
> Cc1ccc(CON=C2CCN(c3ncc(C(F)(F)F)cc3Cl)CC2)cc1
    -0.2% | . | . | . | 4.8% | -16.5% | 14.6% | 1.9% | 1.0%
> FC(F)(F)c1cnc(N2CCC(=NOCc3ccc(Cl)cc3)CC2)c(Cl)c1
    -1.0% | 6.8% | 21.4% | 1.4% | -3.2% | 8.2µM* | -25.2% | -4.0% | 0.0%
> CC(=O)OCC(NC(=O)C(COCc1ccccc1)NC(=O)OC(C)(C)C)C1OC(n2cc(F)c(=O)[nH]c2=O)C(OC(C)=O)C1OC(C)=O (stereo not given)
    . | . | . | . | . | 12.2% | -5.0% | . | .
> O=C1CC(c2ccco2)Cc2[nH]c(=O)c(C(=O)Nc3ccccc3)cc21 (stereo not given)
    . | ? | -9.5% | -17.2% | . | . | . | -1.2% | .
> CC1(C)N=C(N)N=C(N)N1CCCCc1ccccc1
    -0.8% | 1.16µM* | -5.3% | 3.3% | . | 0.82µM* | -3.3% | 2.7% | .
> CC1(C)N=C(N)N=C(N)N1c1cccc(CC(=O)Nc2ccccc2)c1
    -0.5% | . | . | . | . | . | . | -0.8% | .
> Cn1c(=O)n(-c2ccc(C(C)(C)C#N)cc2)c2c3cc(-c4cnc5ccccc5c4)ccc3ncc21
    . | 0.92µM* | ? | -0.1% | . | . | . | 4.3%[115 µM] | .

# Quoted at random: 4 compounds from above, in no set order.
# Below each SMILES: Nrf2 ARE act | ARE-Fluc inh | A549 tox-2 | FLuc counter 3 | p53 reactivator | Nrf2 block | A549 tox-1 | ClpP mod | miR-21 reporter
> COc1ccc(CNc2ncnc3c2[nH]c2ccccc23)cc1
    8.2% | 5.17µM* | -19.8% | ? | -8.5% | 4.61µM* | -19.2% | . | ?
> O=S(=O)(c1ccccc1Cl)N1CCCC1c1nc(-c2ccc(Cl)cc2)no1 (stereo not given)
    2.0% | 13µM* | 9.9% | -7.6% | 1.9% | 5.8µM* | -15.4% | -2.7% | 10.6%
> Cn1c(=O)n(-c2ccc(C(C)(C)C#N)cc2)c2c3cc(-c4cnc5ccccc5c4)ccc3ncc21
    . | 0.92µM* | ? | -0.1% | . | . | . | 4.3%[115 µM] | .
> CC1(C)N=C(N)N=C(N)N1c1cccc(CC(=O)Nc2ccccc2)c1
    -0.5% | . | . | . | . | . | . | -0.8% | .

# Screening results deposited in PubChem by National Center for Advancing Translational Sciences (NCATS).
